Measurements taken from US11319322B2, “Substituted aryl ether compound, preparation method thereof, pharmaceutical composition and use thereof” (Xiamen University, priority 2017, dated 2022).

By UniProt entry, the sequences of proteins in these tests, tags left out.
UniProt P07949, whole entry: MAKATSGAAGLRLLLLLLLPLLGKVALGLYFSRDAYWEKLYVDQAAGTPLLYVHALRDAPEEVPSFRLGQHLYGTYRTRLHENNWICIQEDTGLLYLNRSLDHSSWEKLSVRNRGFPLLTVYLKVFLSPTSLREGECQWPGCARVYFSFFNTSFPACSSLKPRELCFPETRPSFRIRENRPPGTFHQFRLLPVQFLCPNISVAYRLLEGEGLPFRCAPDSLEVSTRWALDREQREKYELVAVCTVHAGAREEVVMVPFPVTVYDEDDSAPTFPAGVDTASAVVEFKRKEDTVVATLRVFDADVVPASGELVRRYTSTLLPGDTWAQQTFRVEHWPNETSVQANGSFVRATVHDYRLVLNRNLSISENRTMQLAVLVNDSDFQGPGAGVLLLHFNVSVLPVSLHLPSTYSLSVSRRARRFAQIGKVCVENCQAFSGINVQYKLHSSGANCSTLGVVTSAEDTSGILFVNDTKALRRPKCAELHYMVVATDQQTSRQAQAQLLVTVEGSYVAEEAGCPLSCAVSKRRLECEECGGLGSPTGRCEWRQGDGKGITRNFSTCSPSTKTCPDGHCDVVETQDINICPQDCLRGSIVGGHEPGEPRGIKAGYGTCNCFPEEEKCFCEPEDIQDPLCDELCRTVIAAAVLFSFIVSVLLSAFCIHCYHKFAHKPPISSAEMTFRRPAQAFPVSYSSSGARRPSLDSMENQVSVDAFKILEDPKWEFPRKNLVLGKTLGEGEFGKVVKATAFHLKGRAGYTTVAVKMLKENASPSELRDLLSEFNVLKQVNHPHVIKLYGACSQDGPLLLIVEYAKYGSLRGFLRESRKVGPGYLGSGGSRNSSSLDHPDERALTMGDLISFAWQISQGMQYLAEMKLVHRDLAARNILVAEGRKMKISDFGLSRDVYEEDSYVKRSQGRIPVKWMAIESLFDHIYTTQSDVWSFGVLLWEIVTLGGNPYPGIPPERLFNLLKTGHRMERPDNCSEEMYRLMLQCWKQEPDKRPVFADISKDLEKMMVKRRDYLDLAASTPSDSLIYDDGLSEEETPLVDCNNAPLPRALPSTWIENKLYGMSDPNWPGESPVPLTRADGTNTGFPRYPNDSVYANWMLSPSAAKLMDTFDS

Key:
[1] = target: KIF5B-RET-BaF3 (Homo sapiens, UniProt P07949); assay: Growth inhibition of KIF5B-RET-BaF3 cells stably transfected with kinase (MTS); conditions: read-out: KIF5B-RET (IC50/nM), 48 h
Experimental: (§1) Growth inhibitory activity of compounds on cell lines stably transfected with kinase
(§2) The activity of compounds against kinase RET is evaluated by their effect of inhibiting growth of cell lines stably transfected with kinase CCDC6-RET-BaF3, KIF5B-RET-BaF3, and wild-type BaF3 (Proc. Natl. Acad. Sci. USA., 2006, 103, 3153-8.). The growth of the cell lines stably transfected with kinase CCDC6-RET-BaF3, KIF5B-RET-BaF3 depends on their kinase activity. If a compound can inhibit the activity of the kinase RET per se or the activity of the RET signaling pathway, the compound can inhibit the growth of BaF3 cells stably transfected with kinase. […] Therefore, a larger ratio between IC50 of a compound to wild-type BaF3 and IC50 of the compound to the cell lines stably transfected with kinase CCDC6-RET-BaF3, KIF5B-RET-BaF3 indicates better targeting.
(§3) The specific test method is given as follows:
(§4) 1) Medium: DMEM (Dulbecco's modified eagle medium) or RPMI 1640 (containing 10% fetal bovine serum, 100 μg/mL ampicillin, 100 μg/mL streptomycin). […]
(§5) 4) IC50 calculation: The semi-inhibitory concentration of the compound acting on cell growth was calculated using GradPad Prism 5 software according to the measured cell growth inhibition rate.

[2] = tested on: wild-type BaF3; assay: Growth inhibition of wild-type BaF3 cells, broad-spectrum toxicity (MTS); conditions: read-out: WT Ba/F3 (IC50/nM), 48 h
Experimental: as §1, §2, §3, §4, §5

[3] = target: CCDC6-RET-BaF3 (Homo sapiens, UniProt P07949); assay: Growth inhibition of CCDC6-RET-BaF3 cells stably transfected with kinase (MTS); conditions: read-out: CCDC6-RET (IC50/nM), 48 h
Experimental: as §1, §2, §3, §4, §5

GI50 [1] [nM]	GI50 [3] [nM]	SMILES	IC50 [2] [nM]
13.3	–	CN1CCN(Cc2ccc(NC(=O)c3cc(Oc4nc(-c5ccncc5)nc5ccn(C)c45)ccc3Cl)cc2C(F)(F)F)CC1	1150
2660	1810	CN1CCN(Cc2ccc(C(=O)Nc3cc(Oc4nc(-c5ccc(N)cc5)nc5ccn(C)c45)ccc3Cl)cc2C(F)(F)F)CC1	–
